Chains of the proteins cited; added tags and fusions are not shown.
ATP-dependent Clp protease proteolytic subunit (Bacillus subtilis (strain 168)), P80244, UniProt P80244, whole entry, looked up: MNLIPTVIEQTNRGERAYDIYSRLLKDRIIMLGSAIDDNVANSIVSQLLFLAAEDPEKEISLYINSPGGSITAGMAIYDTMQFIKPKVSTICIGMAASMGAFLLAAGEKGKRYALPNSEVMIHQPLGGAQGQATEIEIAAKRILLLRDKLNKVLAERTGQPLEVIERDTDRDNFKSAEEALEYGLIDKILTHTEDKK

# From PubChem BioAssay
# An excerpt weighted towards active compounds, which were near 3.7% of everything screened.
# p53 reactivator: restores transcriptional activity of mutant p53 | 320,000 tested, 0.063% active | H1299 p53-A138V BP100-luciferase reporter, luminescence, 24 h | Potency, µM (titrated, usually from 92.2 µM), for inactives: at the top dose activity change, positive = activation, actives largely listed as activators | AID 504706; also: potency is read from the fitted curve at half-maximal effect; % of control where 0% means no effect; nearly all actives have a fitted effect of over 45% in size
#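 H1299 (p53-null), stable ts p53-A138V + BP100-Luc; 1000 cells/well, Opti-MEM/10% FBS; cpd 4 pt, 1:5; 24 h, 37 deg C, 5% CO2; detection reagent 10 min RT; luminescence.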
# Nrf2 activator: Nrf2 pathway activation | 410,000 tested, 0.31% active | AID 624171 | Potency, µM (highest dose often 46.1 µM), for the others: top-dose activation, actives largely listed as activators | AREc32 ARE-luciferase reporter (MCF7-derived line), luminescence, 24 h; also: potency is read from the fitted curve at half-maximal effect; % of control where 0% means no effect; nearly all actives have a fitted effect of over 65% in size
#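 AREc32 cells carrying an ARE-driven firefly luciferase, 1000 cells/well in OPTI-MEM with 5% FBS, dosed after overnight attachment and incubated 24 hr at 37 deg C. Steady-Glo luminescence read after 30 min at RT.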
# A549 viability: kills or reduces viability of A549 cells in Nrf2 counter-screen; AID 504648; Potency, µM (doses to about 46 µM), for the others: at the highest dose activity change, negative = cytotoxicity, most hits filed as inhibitors; 390,000 tested, 0.16% active; A549 ARE-Fluc cells, CellTiter-Fluor viability, 18-24 h; also: potency is read from the fitted curve at half-maximal effect; % is scaled to controls: 0 for no effect and ±100 for the full control effect
#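 A549 ARE-Fluc cells in 5% FBS OPTI-MEM, 5000 cells/well, rested 2 h then exposed to compounds in concentration-response for 18-24 h at 37 °C. Viability by CellTiter-Fluor fluorescence (Ex 405/Em 525) after 30 min; luciferase luminescence (BugLite, 15 min, RT) read afterwards.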
# ClpP mod: qHTS Assay for Activators of ClpP; AID 651965, 2013; purified B. subtilis ClpP, FRET peptide cleavage, 20 min; 340,000 tested, 1.9% active; Potency, µM (series often up to 57.5 µM), for inactives: at the top dose activity change, negative = active; ATP-dependent Clp protease proteolytic subunit (Bacillus subtilis (strain 168)), P80244; active = well fitted falling curve with a large enough effect; inconclusive = small, poorly fitted or top-dose-only effect; inactive = no such curve, though single readings can be large or run the other way; also: potency is read from the fitted curve at half-maximal effect; the source files actives as falling curves though it sought activators and does not explain the sign; nearly all actives have a fitted effect of over 65% in size
#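 Purified B. subtilis ClpP, 10 microg/mL final in Tris/HCl pH8 with KCl, BSA, glycerol and Tween-20, cleaved an Abz/nitrotyrosine-quenched decapeptide. Fluorescence (ex 320, em 430) was read at 0 and 20 min at room temperature. Delta was normalized to 5.8 microM ADEP and DMSO/no-enzyme controls.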
# Nrf2 block: blocks Nrf2 signaling. Potency, µM (highest dose often 46 µM), without a hit: at the highest dose activity change, negative = inhibition, most hits filed as inhibitors. A549 ARE-Fluc reporter, luciferase luminescence, 18-24 h. 360,000 tested, 2.1% active. AID 504444; also: potency is read from the fitted curve at half-maximal effect; % is scaled to controls: 0 for no effect and ±100 for the full control effect; nearly all actives have a fitted effect of over 60% in size
#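 Concentration-response testing used A549 ARE_Fluc cells at 5000 cells/well. Following an 18-24 h compound incubation, viability was read by fluorescence (Ex 405/Em 525) and luciferase output by luminescence.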
# miR-21 FLuc: miR-21 reporter, rising signal; Potency, µM (titrated, usually from 38.3 µM), without a hit: at the highest dose reporter change, positive = more light; AID 2288; 340,000 tested, under 10 active; HeLa miR-21 FLuc reporter, luciferase, 48 h; active = well fitted rising curve with a large enough effect; inconclusive = small, poorly fitted or top-dose-only effect; inactive = no such curve, though single readings can be large or run the other way;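 note: % of control where 0% means no effect; miR-21 action dims this reporter so a rising signal means less miR-21 action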
#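 HeLa miR-21-FLuc reporter line, endogenous miR-21; 2000 cells/well in DMEM/10% FBS; compound titration up to ~40uM final, 48 h, 37 degree Celsius; luciferase detection reagent, 15 min lysis, CCD luminescence.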
# Numbers without * were called inactive; u = inconclusive; x = no result given. Unless noted, calls follow the shape of the dose curve; as a rule, active = well fitted curve in the direction sought with a large enough effect; inconclusive = small, poorly fitted or top-dose-only effect, or another doubt; inactive = no such curve, though single readings can be large; an effect the other way counts as inactive or inconclusive.
SMILES,p53 reactivator,Nrf2 activator,A549 viability,ClpP mod,Nrf2 block,miR-21 FLuc
CCOC(=O)C1CCCN(C(=O)c2ccc3c(c2)N(Cc2ccccc2F)C(=O)c2ccccc2S3=O)C1 (stereo not given),x,0%,-10%,-2%,-9%,4%
CC(=O)N1c2ccc(S(=O)(=O)Nc3ccc(C)c(Cl)c3)cc2CC1C (stereo not given),x,6%,9%,-3%,u,20%
CC(=O)N1c2ccc(S(=O)(=O)Nc3ccc(C)c(C)c3)cc2CC1C (stereo not given),x,x,u,x,10µM*,x
CC1CN(C(=O)c2ccc(S(=O)(=O)Nc3cccc(C(F)(F)F)c3)cc2)CC(C)O1 (stereo not given),-9%,1%,-9%,-2%,13µM*,x
CCOC(=O)c1[nH]c(C)c(CCC(=O)Nc2ccc(C)cc2Cl)c1C,x,0%,15%,2%,x,-6%
Cc1ccccc1-c1nc2c(=O)n(C)c(=O)nc-2n(C)n1,x,x,4.1µM*,-1%,2.3µM*,x
CCc1ccc(-c2csc3ncn(CC)c(=O)c23)cc1,-4%,0%,-9%,-2%,-5%,-10%
CCc1ccc(-c2nc3c(=O)n(C)c(=O)nc-3n(CC)n2)cc1,x,x,u,0%,15µM*,x
CCCc1nc2c(=O)n(C)c(=O)nc-2n(C)n1,-11%,-3%,6.5µM*,x,23µM*,u
Cn1nc(-c2ccccn2)nc2c(=O)n(C)c(=O)nc1-2,-13%,-3%,3.3µM*,0%,3.7µM*,u
O=C(COc1ccc(Br)cc1)Nc1ccccc1C(=O)NC1CC1,-3%,0%,1%,x,-3%,x
CCCNC(=O)CSc1cn(CC(=O)N2CCCCCC2)c2ccccc12,x,1%,0%,-5%,3%,4%
CCOc1ccc(NC(=O)Cn2ccn3nc(-c4ccc(OC)c(OC)c4)cc3c2=O)cc1,x,3%,9%,5%,x,-9%
Cc1ccc(-n2nnnc2CNC(=O)C(C)C)cc1C,x,-1%,-1%,0%,x,0%
CCOC(=O)Cn1c(=O)n(CC2CCCO2)c2nc(-c3cccc(C)c3)nc(C(N)=O)c21 (stereo not given),x,-1%,-1%,4%,x,1%
COC(=O)COc1ccc(-c2nccc(-c3ccccn3)n2)cc1,-11%,-2%,-8%,x,7.3µM*,25%
COC(=O)COc1ccc(-c2nccc(-c3ccc(Br)cc3)n2)cc1,-6%,0%,1%,x,3%,-2%
O=C(Nc1cnc2sccn2c1=O)c1ccccc1Cl,16%,11µM*,10%,-5%,3%,-18%
O=C(Nc1ccon1)c1cnc2sccn2c1=O,u,13%,3%,20µM*,9%,-15%
CSC1=NC=C(C#N)C2=NC(c3c(Cl)cccc3Cl)NN12 (stereo not given),x,15%,x,-2%,x,x
CN1CCN(c2ccc(-c3ccc4ccccc4n3)cc2)CC1,-9%,-2%,7%,x,10µM*,u
c1ccc2nc(-c3ccncc3)ccc2c1,10%,0%,-13%,0%,4%,-49%
Cc1ccccc1NC1=NC(=S)N(c2ccccc2)C12CCCCC2,19%,0%,13%,28µM*,2%,2%
O=C(CSc1nnc(NC(=O)c2ccccc2)s1)NCc1ccco1,-1%,4.5µM*,-3%,0%,10%,-27%
O=C(CSc1nnc(NC(=O)c2ccc3c(c2)OCO3)s1)NCc1ccco1,-5%,-1%,-2%,4.5µM*,u,-2%
O=C(Nc1ccc2nc(SCC(=O)N3CCc4ccccc43)sc2c1)c1cccc(F)c1,x,0%,6%,4%,22%,-3%
CN(c1ccccc1)S(=O)(=O)c1cccc(NC(=O)c2nn(C)c(=O)c3ccccc23)c1,-9%,2%,-2%,-12%,23µM*,x

# Sorted by value in p53 reactivator (largest number first): some entries from above.
mol | p53 reactivator | Nrf2 activator | miR-21 FLuc
Cc1ccccc1NC1=NC(=S)N(c2ccccc2)C12CCCCC2 | 19% | 0% | 2%
O=C(CSc1nnc(NC(=O)c2ccccc2)s1)NCc1ccco1 | -1% | 4.5µM* | -27%
CN(c1ccccc1)S(=O)(=O)c1cccc(NC(=O)c2nn(C)c(=O)c3ccccc23)c1 | -9% | 2% | x

# Complete entries, quoted from the list.
# Record of c1ccc2nc(-c3ccncc3)ccc2c1 → p53 reactivator: 10%; Nrf2 activator: 0%; A549 viability: -13%; ClpP mod: 0%; Nrf2 block: 4%; miR-21 FLuc: -49%
# Record of O=C(Nc1cnc2sccn2c1=O)c1ccccc1Cl → p53 reactivator: 16%; Nrf2 activator: 11µM*; A549 viability: 10%; ClpP mod: -5%; Nrf2 block: 3%; miR-21 FLuc: -18%
